Assay outcomes deposited in PubChem by Broad Institute.
Yeast UUG start: modulators of start codon recognition fidelity in yeast; S. cerevisiae UUG-firefly luciferase reporter, luminescence/redox ratio; AID 602363; 350,000 tested, 0.13% active; activity score, % at 18.7 µM;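 active = replicate mean at a twofold rise or more, about +100% in these data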;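 also: firefly luciferase made from a UUG start codon reports start codon fidelity; reporter light over untreated wells divided by growth signal over untreated wells; some hits fall short of that in this replicate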
CDK5 p35 inh: blocks human CDK5/p35 kinase activity | Q00535+Q15078 | Recombinant CDK5/p35, ADP-Glo luminescence, 60 min | inhibition, % at 10 µM | 0.01% of 330,000 active | AID 488839;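 active = highest replicate inhibition of at least 50% and at least 75% of replicates reaching 50%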;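 also: plate controls were DMSO neutral control for no effect and GW8510 at 10 µM for full effect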
dFosB act: mouse delta FosB homodimer activation. activation, % at 25 µM. purified delta FosB, TAMRA-CDK5 oligo fluorescence polarization; percent of positive-control signal above neutral wells. P13346. 0.99% of 340,000 active. AID 493131;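 active = mean activation above about 17%, with every replicate also reaching it, limit read from the data, passing the limit was not always enough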
CAL PDZ FP-1: inhibitors of human CAL PDZ peptide binding. Q9HD26. purified CAL PDZ, TMR-peptide fluorescence polarization, 1 h. inhibition, % at 20 µM. 0.02% of 330,000 active. AID 504414;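 active = highest replicate inhibition of at least 40%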;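 also: plate controls were DMSO neutral control wells for no effect and unlabeled competitor peptide control wells for full effect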
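material = purified tagged CAL PDZ domain construct (CerCALP) | compound dosing = 20 µM, one dose | times = 1 h at RT | measured by = fluorescence polarization from S- and P-plane intensities, G-factor corrected | read-out = inhibition from polarization loss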
Dyrk1A ADPGlo: inhibitors of rat Dyrk1A kinase | Q63470 | ADP-Glo luminescence, NFATc1 peptide | inhibition, % at 12.5 µM | 0.43% of 310,000 active | AID 504441; in the data active = inhibition above about 50%;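 also: plate controls were vehicle with enzyme for no effect and no enzyme for full effect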
CAL PDZ FP-2: blocks peptide binding to the human CAL PDZ domain | Q9HD26 | purified CAL PDZ, TMR-peptide fluorescence polarization, 1 h | inhibition, % at 24.9 µM | 0.92% of 300,000 active;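 active = mean inhibition of at least 30% with at least half of replicates also reaching 30%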;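 also: 0% = DMSO neutral control and 100% = excess unlabeled competitor peptide PRC23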
Active calls of the source: *; / = no result given. Rows were chosen to be rich in hits. Some 1.7% of all compounds tested hit in one or more screens of this group.

SMILES	Yeast UUG start	CDK5 p35 inh	dFosB act	CAL PDZ FP-1	Dyrk1A ADPGlo	CAL PDZ FP-2
CCOc1ccc(NC(=S)NC(=O)C2CCCC2)cc1	-25.9	-2.5	-4.2	-0.4	1.0	32.1*
CCOc1ccc(C(=O)Nc2ccc(N3CCCC3)cc2)cc1	/	-2.4	22.0*	1.1	-4.3	-3.6
Cc1cccc(NC(=O)CSCC(=O)Nc2cc(C(F)(F)F)ccc2N2CCOCC2)c1	-4.1	/	/	/	/	/
Cc1cccc(NC(=O)CSCC(=O)Nc2ccc(N3CCOCC3)cc2N2CCOCC2)c1	-0.8	1.5	-5.8	0.0	-0.2	89.1*
O=C(Nc1ccccc1)N[C@@H]1CC[C@@H](CCNC(=O)c2ccccc2F)O[C@@H]1CO	-3.6	/	/	/	/	/
CNC(=O)C[C@H]1CC[C@@H]2[C@H](COc3ccc(NC(=O)Nc4ccccc4)cc3C(=O)N2C)O1	0.1	/	/	/	/	/
C[C@@H]1CN([C@@H](C)CO)C(=O)c2cc(-c3ccc(F)cc3)cnc2O[C@@H]1CN(C)C(=O)CN(C)C	8.4	/	/	/	/	/
CCCCOc1ccc(C(=O)Nc2ccc3c(c2)C(=O)NC3=O)cc1	-18.0	1.2	6.2	0.5	-2.3	/
COc1ccc(C(=O)NC(=S)Nc2ccc(N3CCCC3)cc2)cc1	/	0.7	-4.4	-2.0	2.2	-1.9
CCOc1ccc(C(=O)Nc2ccc3c(c2)C(=O)NC3=O)cc1	-7.0	-1.3	58.7*	-0.7	0.0	/
COc1ccc(C(=O)Nc2ccc(N3CCCC3)cc2)cc1	-14.4	-5.9	28.8*	-0.1	4.2	0.1
COc1ccc(CNC(=O)CCS(=O)(=O)c2ccc3c(c2)oc(=O)n3C)cc1	-3.5	-1.6	-3.7	-0.7	0.5	-1.0
CN(C)c1ccc(CNC(=O)CCS(=O)(=O)c2ccc3c(c2)oc(=O)n3C)cc1	1.0	-0.3	-1.5	-0.6	-5.6	63.2*
COc1ccccc1NC(=O)Nc1ccnn1Cc1cccs1	-25.0	-0.5	2.5	-0.6	0.2	57.2*
C[C@H]1CN([C@@H](C)CO)S(=O)(=O)c2ccc(C#CCN(C)C)cc2O[C@H]1CN(C)CC1CC1	19.3	/	/	/	/	/
Cc1ccccc1C(=O)Nc1ccccc1-c1nnn(CC(=O)Nc2ccc3c(c2)OCCO3)n1	-18.4	0.2	31.2*	-1.0	1.2	-4.6
CC(=O)Nc1ccccc1-c1nnn(CC(=O)Nc2ccc3c(c2)OCCO3)n1	-11.2	1.8	-0.5	-0.6	-3.3	0.3
Cc1cc(C)n(CC(O)Cn2c3ccccc3c3ccccc32)c(=O)n1 (configuration not stated)	-16.9	-3.2	-1.3	-1.3	0.0	-3.4
Cc1cc(C)n(CC(O)Cn2c3ccc(Br)cc3c3cc(Br)ccc32)c(=O)n1 (configuration not stated)	/	-1.4	19.9*	-2.3	-36.4	-4.4
COc1ccc(OC)c(NC(=O)N2CCCC(C)C2)c1 (configuration not stated)	-18.7	0.0	2.8	0.9	-0.1	-4.2
CC(C)(C)c1ccc(C(=O)C2CCCN(C(=O)c3ccccn3)C2)cc1 (configuration not stated)	4.5	0.2	-5.4	-1.5	-8.0	-1.8
COc1cccc(C(=O)C2CCCN(C(=O)c3ccccn3)C2)c1 (configuration not stated)	-5.0	-0.4	-3.2	1.0	-1.3	73.3*
COc1ccc(OC)c(NC(=O)N2CCCC(C(=O)c3ccccc3OC)C2)c1 (configuration not stated)	-23.3	-3.5	-2.8	0.0	-2.4	76.8*
CC(=O)N(C)C[C@H]1Oc2ncc(-c3ccc(C#N)cc3)cc2C(=O)N([C@@H](C)CO)C[C@@H]1C	0.2	/	/	/	/	/
C/C=C/c1ccc([C@@H]2[C@@H](CO)N(C(=O)C3CC3)[C@H]2CN(C)C(=O)CC)cc1	5.7	/	/	/	/	/
COc1ccccc1NC(=O)Nc1nnc(CC(=O)Nc2ccccc2C)s1	/	-3.6	26.5*	-1.4	1.0	/
COc1ccccc1-c1cn(CC[C@@H]2CC[C@@H](NC(=O)NC(C)C)[C@H](CO)O2)nn1	-4.1	/	/	/	/	/
CC(=O)c1cc(-c2ccccc2)n(CC(=O)Nc2cc(C)cc(C)c2)c1C	-26.9	0.0	32.7*	0.6	-4.1	0.8
CC(=O)c1cc(-c2ccccc2)n(CC(=O)NC2CCCC2)c1C	-12.9	-0.5	-5.6	-0.3	-2.2	/
O=C(COC(=O)c1ccc2c(c1)OCO2)NCc1ccc(Cl)cc1	-6.1	-4.0	10.3	/	2.5	61.0*
O=C(O)c1ccccc1Sc1ncnc2sc3c(c12)CCC3	-16.5	-0.5	-11.5	/	2.6	64.8*
COCCNC(=O)C[C@@H]1CC[C@@H]2[C@H](COc3ccc(NS(=O)(=O)c4ccc(Cl)cc4)cc3C(=O)N2C)O1	2.9	/	/	/	/	/
COc1cccc(C2c3[nH]c4ccccc4c3C[C@H]3C(=O)N(C4CCN(Cc5ccccc5)CC4)CC(=O)N23)c1 (some centres not stated)	-1.8	1.4	37.8*	-0.2	-2.1	1.3
COc1ccccc1C1c2[nH]c3ccccc3c2C[C@H]2C(=O)N(C3CCN(Cc4ccccc4)CC3)CC(=O)N12 (some centres not stated)	5.3	1.2	37.9*	-0.7	-1.3	-4.7
C[C@@H]1CN([C@H](C)CO)C(=O)Cc2cc(NC(=O)NC3CCCCC3)ccc2O[C@H]1CN(C)C(=O)Nc1ccc2c(c1)OCO2	13.8	/	/	/	/	/
CC(C)NC(=O)N(C)C[C@@H]1Oc2ccc(NS(=O)(=O)c3cn(C)cn3)cc2C(=O)N([C@@H](C)CO)C[C@H]1C	-11.6	/	/	/	/	/
Nc1nc(N)c(Br)c(Nc2ccc(Cl)c(Cl)c2)n1	-6.9	-7.1	0.0	-0.4	35.8	/
Nc1nc(N)c(C=Nc2ccc(Br)cc2)c(Nc2ccc(Br)cc2)n1	-17.3	1.3	107.7*	-0.8	0.5	-2.5
Cn1nnnc1SCC(=O)NCc1cccs1	-11.8	0.7	6.1	-0.7	1.3	52.8*
O=C(CSc1nnnn1-c1ccccc1)NCc1cccs1	3.1	-1.2	-6.9	-0.9	1.9	0.9
Cn1nnnc1SCC(=O)Nc1nn(-c2ccccc2)nc1C(N)=O	-17.2	1.0	-4.2	-0.2	/	55.4*
COc1cccc(-c2ccc3c(c2)[C@H]2[C@H](CCN2C(=O)Cc2ccccc2)[C@@H](CO)N3)c1	23.7	/	/	/	/	/
CC1(C)CC2(CCCN(CC(O)(c3ccccc3)c3ccccc3)C2)CCO1 (configuration not stated)	7.5	-3.3	-7.7	-0.4	-2.4	86.3*
CCC1(C)CC2(CCCN(CCC(O)(c3ccccc3)c3ccccc3)C2)CCO1 (configuration not stated)	-22.0	3.1	-1.3	-1.7	2.4	/
CCN(CC)c1ccc(/C=N/NC(=O)Cc2nnc(NC(=O)Nc3ccccc3)s2)cc1	/	0.4	25.4*	-3.0	1.1	-1.1
CCN(CC)c1ccc(/C=N/NC(=O)Nc2ccccc2)cc1	/	-3.8	-9.8	-2.7	-4.3	7.5

Sorted by heavy-atom count (largest number first): part of the list above
SMILES	Yeast UUG start	CDK5 p35 inh	dFosB act	CAL PDZ FP-1	Dyrk1A ADPGlo	CAL PDZ FP-2
COc1cccc(-c2ccc3c(c2)[C@H]2[C@H](CCN2C(=O)Cc2ccccc2)[C@@H](CO)N3)c1	23.7	/	/	/	/	/
CCC1(C)CC2(CCCN(CCC(O)(c3ccccc3)c3ccccc3)C2)CCO1 (configuration not stated)	-22.0	3.1	-1.3	-1.7	2.4	/
CC1(C)CC2(CCCN(CC(O)(c3ccccc3)c3ccccc3)C2)CCO1 (configuration not stated)	7.5	-3.3	-7.7	-0.4	-2.4	86.3*
CCN(CC)c1ccc(/C=N/NC(=O)Nc2ccccc2)cc1	/	-3.8	-9.8	-2.7	-4.3	7.5
O=C(CSc1nnnn1-c1ccccc1)NCc1cccs1	3.1	-1.2	-6.9	-0.9	1.9	0.9
Nc1nc(N)c(Br)c(Nc2ccc(Cl)c(Cl)c2)n1	-6.9	-7.1	0.0	-0.4	35.8	/
